Tests used:
[1] = target: T1, VcMTAN (Vibrio cholerae serotype O1, UniProt Q9KPI8); assay: Inhibition of purified MTAN activity (xanthine oxidase-coupled assay); format: biochemical
T1 construct: residues 1-230 for each monomer of VcMTAN in the asymmetric unit; The largest part of the N-terminal 6-His tag and the last C-terminal residue, 231; made in house; host or cells: E. coli BL21 Star (pBAD-DEST49)
T1 sequence (Q9KPI8 1-231): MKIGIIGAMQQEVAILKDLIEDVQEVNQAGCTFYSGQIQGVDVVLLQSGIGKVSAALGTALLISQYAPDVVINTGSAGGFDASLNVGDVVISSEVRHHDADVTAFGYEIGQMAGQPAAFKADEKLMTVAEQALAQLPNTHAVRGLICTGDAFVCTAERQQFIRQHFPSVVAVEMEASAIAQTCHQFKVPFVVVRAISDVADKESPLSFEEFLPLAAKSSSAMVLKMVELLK

[2] = target: T2, MTAN activity in V. cholerae N16961 cells (Vibrio cholerae serotype O1, UniProt Q9KPI8)
[3] = system: wild-type E. coli; conditions: 0.5 μM inhibitor versus wild-type and MTAN knockout
[4] = system: Autoinducer-2 production in wild-type E. coli; conditions: wild-type E. coli with 0.5 μM inhibitor
[5] = system: autoinducer production by V. cholerae N16961; assay: microbe, parasite or virus in culture; conditions: Vibrio cholerae, read-out: AI Inhibition IC50, BB120 (ai1+ai2+)
[6] = target: T2, MTAN activity in V. cholerae N16961 cells; assay: cell-based
[7] = system: mouse xenografts; conditions: in vivo; cited from earlier work
[8] = system: head and neck squamous cell carcinoma cell lines; conditions: cited from earlier work
[9] = system: normal human fibroblast cell lines; conditions: cited from earlier work

Compound | type of inhibition (reaction progress curves) [1] | increase of cellular IC50 above Ki* (diffusion barrier) [2] | Growth phenotype of E. coli [3] | AI-2 production in words [4] | Ki [1] | IC50 [5] | IC50 [6] | tumor growth in mouse xenografts [7] | apoptosis in head and neck squamous cell carcinoma cell lines [8] | effect on normal human fibroblast cell lines [9]
CCSCC1CN(Cc2c[nH]c3c(N)ncnc23)CC1O (stereo not drawn) [EtT-DADMe-ImmA, 5′-ethylthio-(EtT-) DADMe-ImmucillinA] | time-dependent, slow-onset inhibition | ~500 fold | – | – | – | – | – | – | – | –
CCCCSCC1CN(Cc2c[nH]c3c(N)ncnc23)CC1O (stereo not drawn) [BuT-DADMe-ImmA, 5′-butylthio-(BuT-)DADMe-ImmucillinA] | time-dependent, slow-onset inhibition | – | nearly identical | Defective AI-2 production | – | – | – | – | – | –
CSCC1CN(Cc2c[nH]c3c(N)ncnc23)CC1O (stereo not drawn) [MT-DADMe-ImmA, 5′-methylthio-(MT-) DADMe-ImmucillinA] | time-dependent, slow-onset inhibition | – | – | – | 0.073 nM | 10.5 nM | 27 nM | suppresses tumor growth | induces apoptosis | without affecting normal human fibroblast cell lines

From US20110190265A1, “METHODS AND COMPOSITIONS FOR TREATING BACTERIAL INFECTIONS BY INHIBITING QUORUM SENSING” (priority 2008, published 2011)
